For this test, the target named is T1R1/T1R3 (Homo sapiens) (UniProt Q7RTX0+Q7RTX1). Put plainly: Activation of human T1R1/T1R3. Format: protein-complex assay.

Amino acid sequences for entries named in this document (tags omitted). A change or cut given only in a name is not applied to a line headed by its entry.
UniProt Q7RTX0: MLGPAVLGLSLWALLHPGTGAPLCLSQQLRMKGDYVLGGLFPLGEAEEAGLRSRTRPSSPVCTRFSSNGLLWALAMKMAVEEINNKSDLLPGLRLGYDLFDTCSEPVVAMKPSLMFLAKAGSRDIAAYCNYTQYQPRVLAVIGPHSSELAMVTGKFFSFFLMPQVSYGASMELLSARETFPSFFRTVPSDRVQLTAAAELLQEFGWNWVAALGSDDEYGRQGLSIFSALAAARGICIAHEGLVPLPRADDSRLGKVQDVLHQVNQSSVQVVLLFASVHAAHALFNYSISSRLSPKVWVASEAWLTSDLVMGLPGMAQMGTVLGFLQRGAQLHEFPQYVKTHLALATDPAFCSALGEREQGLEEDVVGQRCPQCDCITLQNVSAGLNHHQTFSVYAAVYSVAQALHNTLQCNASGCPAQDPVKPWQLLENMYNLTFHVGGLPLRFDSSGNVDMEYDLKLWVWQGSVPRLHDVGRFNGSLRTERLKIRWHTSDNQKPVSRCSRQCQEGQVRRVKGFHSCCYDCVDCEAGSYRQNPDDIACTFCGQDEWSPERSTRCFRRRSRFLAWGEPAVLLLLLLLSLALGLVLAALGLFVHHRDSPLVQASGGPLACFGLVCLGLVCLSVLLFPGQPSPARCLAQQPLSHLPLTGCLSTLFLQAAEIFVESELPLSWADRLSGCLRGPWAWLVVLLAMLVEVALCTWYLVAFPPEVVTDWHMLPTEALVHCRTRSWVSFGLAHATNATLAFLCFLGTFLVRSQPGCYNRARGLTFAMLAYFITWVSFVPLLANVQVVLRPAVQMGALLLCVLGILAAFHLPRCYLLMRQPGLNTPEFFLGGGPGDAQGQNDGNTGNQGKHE
UniProt Q7RTX1: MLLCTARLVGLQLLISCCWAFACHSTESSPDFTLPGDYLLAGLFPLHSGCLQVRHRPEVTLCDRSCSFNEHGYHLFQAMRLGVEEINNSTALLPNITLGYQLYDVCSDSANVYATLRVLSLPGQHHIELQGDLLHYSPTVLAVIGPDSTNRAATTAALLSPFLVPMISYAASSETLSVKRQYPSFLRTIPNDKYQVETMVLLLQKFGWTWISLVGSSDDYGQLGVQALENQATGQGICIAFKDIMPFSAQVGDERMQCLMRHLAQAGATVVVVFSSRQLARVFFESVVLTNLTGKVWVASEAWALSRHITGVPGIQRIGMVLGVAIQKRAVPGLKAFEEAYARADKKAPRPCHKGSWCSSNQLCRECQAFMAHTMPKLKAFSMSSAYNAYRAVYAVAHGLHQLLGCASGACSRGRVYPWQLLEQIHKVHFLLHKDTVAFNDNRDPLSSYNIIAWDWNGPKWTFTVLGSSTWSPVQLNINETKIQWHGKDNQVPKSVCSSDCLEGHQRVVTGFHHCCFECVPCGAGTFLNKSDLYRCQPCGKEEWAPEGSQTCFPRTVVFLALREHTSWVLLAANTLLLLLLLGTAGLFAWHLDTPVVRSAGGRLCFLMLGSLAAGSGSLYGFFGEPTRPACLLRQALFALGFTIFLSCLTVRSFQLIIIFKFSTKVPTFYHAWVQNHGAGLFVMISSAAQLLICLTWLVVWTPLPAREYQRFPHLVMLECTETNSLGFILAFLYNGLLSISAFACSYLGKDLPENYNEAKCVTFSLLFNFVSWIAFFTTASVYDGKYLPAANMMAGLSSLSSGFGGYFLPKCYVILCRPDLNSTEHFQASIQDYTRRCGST

Calls of active or inactive are those of the source. The rule behind the calls is not given here.

Consider `COC(=O)[C@H](Cc1ccccc1)NC(=O)[C@@H](N)CC(=O)O`, for which the result was inactive.

These data come from ChEMBL document CHEMBL3714709, “T1R hetero-oligomeric taste receptors, cell lines that express said receptors, and taste compounds” (2008).
